# TbMetRS inhib: Trypanosoma brucei MetRS inhibition. purified T. brucei MetRS, ATP depletion, Kinase-Glo luminescence. 0.4% of 360,000 active. AID 624268. inhibition, % at 11.9 µM;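 active means inhibition above a per-plate cutoff of the control wells' mean inhibition plus 3 SD, cut at about 5.5% in these data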;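 further: 0% = DMSO wells median and 100% = median of wells with control inhibitor compound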
#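 Dosing: 11.9 µM single point; system: parasite MetRS enzyme; technique: luminescence of leftover ATP; times: 15 min enzyme-compound preincubation, 2 h reaction, 10 min detection, 25 °C; replicates: each compound tested once; read-out basis: percent inhibition relative to median high and low control wells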
# Arrestin-AP2 inh: inhibitors of human beta-arrestin and AP2 interaction; FITC-arrestin peptide / GST-AP2 beads, flow cytometry; AP2 beta2 appendage carries R879A mutation; inhibition, % at 10 µM; 0.31% of 340,000 active; AID 504490;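 active means inhibition above a set limit, near 3 SD of compounds lacking own fluorescence, cut at about 54% in these data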;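 further: plate controls were DMSO wells for no effect and 5 µM unlabelled arrestin peptide for full effect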
#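 System: GST-AP2 R879A glutathione beads; medium: PBS, Tween 20 0.05%, BSA 0.1%; reagent: fluorescein-tagged arrestin peptide at 50 nM final; schedule: pre-incubation 12 min, peptide binding 1 h, room temperature; detection: flow cytometry, FL1 (488/535 nm); read-out: inhibition as reduced fluorescein signal on beads, percent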
# UUG fidelity: yeast start codon fidelity modulation; AID 602363; activity score, % at 18.7 µM; S. cerevisiae UUG-firefly luciferase reporter, luminescence/redox ratio; 0.13% of 350,000 active;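 active means replicate mean at a twofold rise or more, about +100% in these data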;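 further: firefly luciferase made from a UUG start codon reports start codon fidelity; reporter light over untreated wells divided by growth signal over untreated wells; some hits fall short of that in this replicate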
# DSG3 Ab inh: human desmoglein-3 autoantibody binding inhibition; P32926; DSG3-coupled beads, scFv-anti-DSG3-GFP binding, flow cytometry; stronger effect = lower value; binding (percent of control), % at 10 µM; 0.48% of 310,000 active; AID 588358;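 active means binding more than 3 SD below its plate's average and above zero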;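 further: hits lower antibody fragment binding to DSG3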
# Rce1 inhib: yeast Ras-converting enzyme inhibition | yeast membranes, quenched prenylated peptide cleavage fluorescence | calls only | 0.27% of 290,000 active | AID 2563;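 active means fall in fluorescence gain of 50% or more versus controls, with final raw signal at or below 3038400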;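 further: plate controls were neutral control wells for no effect and wells lacking membranes for full effect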
# TbMetRS confirm: Trypanosoma brucei MetRS inhibition confirmed; shares compounds with TbMetRS inhib; T. brucei MetRS enzyme, luminescence (ATP depletion); inhibition, % at 11.9 µM; 93% of 1,400 active; AID 624412; in the data active means inhibition above about 7%
# Jurkat cytotox: Jurkat T cell cytotoxicity for MetRS hits | AID 624413 | Jurkat cells viability, ATP luminescence | 12% of 1,400 active | shares compounds with TbMetRS inhib | inhibition, % at 8.3 µM; in the data active means inhibition above about 15%;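 further: 0% = vehicle and 100% = reference inhibitor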
# TbMetRS FP orth: T. brucei MetRS inhibition, orthogonal assay. shares compounds with TbMetRS inhib. inhibition, % at 11.9 µM. 44% of 1,400 active. AID 651607. purified T. brucei MetRS, fluorescence polarization; in the data active means inhibition above about 17%;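 further: 0% = vehicle wells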
# * = called active by the depositor; i = inactive; · = no result given. Only some compounds are listed: those with a hit (about 1.2% of all), similar ones and a draw of the others.
# Short forms: A = TbMetRS inhib; B = Arrestin-AP2 inh; C = UUG fidelity; D = DSG3 Ab inh; E = Rce1 inhib; F = TbMetRS confirm; G = Jurkat cytotox; H = TbMetRS FP orth
> COc1ccc(N2CCN(CC(=O)c3c[nH]c4ccccc34)CC2)cc1
  A = 4	B = 19	C = -3	D = 96	E = i	F = ·	G = ·	H = ·

> O=C(CN1CCN(Cc2ccc3c(c2)OCO3)CC1)c1c[nH]c2ccccc12
  A = 14*	B = 0	C = 17	D = 101	E = i	F = 27*	G = -3	H = 9

> COc1ccc(N2CCN(CCCNC(=O)C(=O)c3c(C)[nH]c4ccccc34)CC2)cc1
  A = 5.9*	B = 17	C = -5	D = 102	E = i	F = 18*	G = -2	H = 8

> C[C@H](CO)N1C[C@H](C)[C@H](CN(C)S(=O)(=O)c2cn(C)cn2)Oc2ccc(NC(=O)Cc3ccccc3)cc2C1=O
  A = ·	B = ·	C = -7	D = ·	E = ·	F = ·	G = ·	H = ·

> C[C@@H]1CN([C@H](C)CO)C(=O)Cc2cc(NC(=O)Nc3ccc(F)cc3)ccc2O[C@H]1CN(C)S(=O)(=O)c1cccs1
  A = ·	B = ·	C = 2	D = ·	E = ·	F = ·	G = ·	H = ·

> O=C(N[C@@H]1CC[C@@H](CCn2cc(-c3ccccn3)nn2)O[C@@H]1CO)c1ccncc1
  A = ·	B = ·	C = -16	D = ·	E = ·	F = ·	G = ·	H = ·

> C[C@@H]1CN([C@@H](C)CO)C(=O)Cc2cc(NC(=O)Cc3cn(C)c4ccccc34)ccc2O[C@H]1CN(C)CC1CC1
  A = ·	B = ·	C = 2	D = ·	E = ·	F = ·	G = ·	H = ·

> C=CCNc1ncnc2c1[nH]c1ccc(Cl)cc12
  A = 51*	B = -14	C = -10	D = ·	E = i	F = 64*	G = 18*	H = 38*

> C=CCNc1ncnc2c1[nH]c1ccccc12
  A = 21*	B = 1	C = -19	D = 104	E = i	F = 35*	G = 14	H = 15

> C=CCNc1ncnc2c1cnn2-c1ccc(Cl)cc1
  A = 0	B = 6	C = -5	D = 99	E = i	F = ·	G = ·	H = ·

# Pulled one by one from the entries so far (2):
# Short forms: A = TbMetRS inhib; B = Arrestin-AP2 inh; C = UUG fidelity; D = DSG3 Ab inh; E = Rce1 inhib; F = TbMetRS confirm; G = Jurkat cytotox; H = TbMetRS FP orth
> C=CCNc1ncnc2c1[nH]c1ccccc12
  A = 21*	B = 1	C = -19	D = 104	E = i	F = 35*	G = 14	H = 15

> O=C(CN1CCN(Cc2ccc3c(c2)OCO3)CC1)c1c[nH]c2ccccc12
  A = 14*	B = 0	C = 17	D = 101	E = i	F = 27*	G = -3	H = 9

# (further entries)
# Short forms: A = TbMetRS inhib; B = Arrestin-AP2 inh; C = UUG fidelity; D = DSG3 Ab inh; E = Rce1 inhib; F = TbMetRS confirm; G = Jurkat cytotox; H = TbMetRS FP orth
> O=C(C[C@H]1C=C[C@H](NS(=O)(=O)c2ccccc2)[C@@H](CO)O1)NCc1ccncn1
  A = ·	B = ·	C = -5	D = ·	E = ·	F = ·	G = ·	H = ·

> COc1ccc(NC(=O)Nc2ccc3c(c2)CC(=O)N([C@@H](C)CO)C[C@@H](C)[C@@H](CN(C)S(=O)(=O)c2ccc(OC)cc2)O3)cc1
  A = ·	B = ·	C = -10	D = ·	E = ·	F = ·	G = ·	H = ·

> CO/N=C(\c1nonc1N)N1CCN(c2ccc(Cl)cc2[N+](=O)[O-])CC1
  A = 16*	B = 9	C = 10	D = 108	E = i	F = 24*	G = 10	H = 21*

> COc1ccc(S(=O)(=O)N[C@H]2C=C[C@@H](CC(=O)N3CCc4ccccc4C3)O[C@@H]2CO)cc1
  A = ·	B = ·	C = -1	D = ·	E = ·	F = ·	G = ·	H = ·

> CN1CCSc2ccc(C(=O)NCc3cccc(Br)c3)cc21
  A = 5.7*	B = 7	C = 1	D = 97	E = i	F = 11*	G = -1	H = 1

> C[C@H](O)[C@@H]1C(=O)N2CCc3c([nH]c4ccccc34)[C@@H]2C[C@@H]1N(C)Cc1ccc(Cl)cc1
  A = 87*	B = ·	C = -6	D = ·	E = ·	F = 104*	G = -5	H = 83*

> COc1ccc(-c2ccc3[nH]c4c(c3c2)CCN2C(=O)[C@@H]([C@H](C)O)[C@@H](N(C)C(=O)Nc3ccc(F)cc3)C[C@@H]42)cc1
  A = -2	B = ·	C = -4	D = ·	E = ·	F = ·	G = ·	H = ·

> COc1ccc(-c2ccc3[nH]c4c(c3c2)CCN2C(=O)[C@@H]([C@H](C)O)[C@@H](N(C)C(=O)Nc3cc(Cl)cc(Cl)c3)C[C@@H]42)cc1
  A = 7.8*	B = ·	C = -2	D = 104	E = ·	F = 11*	G = 13	H = 12

> COCC(=O)N(C)[C@H]1C[C@H]2c3[nH]c4ccccc4c3CCN2C(=O)[C@H]1[C@H](C)O
  A = 1	B = ·	C = 10	D = ·	E = ·	F = ·	G = ·	H = ·

> C[C@@H]1CN([C@H](C)CO)C(=O)c2cc(-c3cccnc3)cnc2O[C@@H]1CN(C)C(=O)C1CCCCC1
  A = ·	B = ·	C = -14	D = ·	E = ·	F = ·	G = ·	H = ·

# Further entries.
# Short forms: A = TbMetRS inhib; B = Arrestin-AP2 inh; C = UUG fidelity; D = DSG3 Ab inh; E = Rce1 inhib; F = TbMetRS confirm; G = Jurkat cytotox; H = TbMetRS FP orth
> S=C(N/N=C/c1ccccc1Cl)Nc1ccccc1
  A = -1	B = 24	C = -18	D = 101	E = i	F = ·	G = ·	H = ·

> Cc1cc(Cl)ccc1OCCCC(=O)NNC(=O)c1ccccc1O
  A = 6.0*	B = 2	C = -9	D = 92	E = i	F = 25*	G = 11	H = 22*

> O=C(COc1ccc(Cl)cc1Cl)NNC(=S)NCc1ccco1
  A = 6.4*	B = 5	C = ·	D = 88	E = i	F = 4	G = 12	H = 15

> O=C(CC(=O)Nc1cccc(Cl)c1)N/N=C\c1ccccc1
  A = 36*	B = -1	C = -21	D = 82	E = i	F = 82*	G = -4	H = 51*

> S=C(N/N=C/c1cccc2ccccc12)Nc1cccc(Cl)c1
  A = 5.8*	B = 4	C = -17	D = 91	E = i	F = 0	G = 5	H = 3

> O=C(N/N=C/c1ccc(Cl)cc1)Nc1ccccc1
  A = -1	B = -2	C = -16	D = 101	E = i	F = ·	G = ·	H = ·

# Assay outcomes (PubChem)
